{"source": "patent US20110098284A1", "about": "“Methods and compositions for treating pain” (priority 2005, published 2011)", "key": {"[1]": {"tested_on": "marginal vein of each ear", "assay": "Histopathological evaluation of injection sites (Example 11)", "assay_type": "in vivo, New Zealand White rabbits"}, "[2]": {"details": "entire range of dilution (4-3200 fold), after 1 minute and 24 hours"}, "[3]": {"details": "water at 20° C. as reference"}, "[4]": {"tested_on": "marginal vein of each ear", "assay": "Acute venous irritation of unsalified NSAIDs versus ethylenediamine and piperazine salts, Draize erythema and edema scores (Example 11)", "details": "Wilcoxon Signed-Ranks test"}}, "note": "Read-outs that look alike come from different tables or passages of the source."}
{"substance": "ketoprofen-piperazine", "values": [{"measurement": "incidence of inflammatory cell infiltrates", "setting": "[1]; at the end of needle progression and 1 cm away from the end of progression", "result": "low"}, {"measurement": "mean intensity (severity) of edema and infiltrates", "setting": "[1]; injection site histopathology", "result": "none to negligible"}, {"measurement": "static dilution test (precipitation or turbidity)", "setting": "[2]", "result": "passed"}, {"measurement": "viscosity", "setting": "[3]; 12.7 mg/mL solution", "result": 1.12, "unit": "Cp"}, {"measurement": "viscosity", "setting": "[3]; 50 mg/mL solution", "result": 1.25, "unit": "cP"}, {"measurement": "ionic strength", "setting": "12.7 mg/mL solution", "result": 0.225}, {"measurement": "ionic strength", "setting": "50 mg/mL solution", "result": 0.5}, {"measurement": "edema score compared with the respective unsalified NSAID", "setting": "[4]; 1-hour post-infusion", "result": "significantly lower"}, {"measurement": "erythema score compared with the respective unsalified NSAID", "setting": "[4]; 1-hour post-infusion", "result": "significantly lower"}, {"measurement": "edema score compared with the respective unsalified NSAID", "setting": "[4]; 24-hour post-infusion", "result": "significantly lower"}, {"measurement": "erythema score compared with the respective unsalified NSAID", "setting": "[4]; 24-hour post-infusion", "result": "significantly lower"}]}
